Compound activity as filed in PubChem.
NALP1 yeast inh: inhibitors of NALP1 inflammasome in yeast | S. cerevisiae NALP1/ASC/caspase-1 growth, X-gal OD620, 72 h | inhibition, % at 10 µM | actives 0.61% (n = 280,000) | AID 2071; in the data active = inhibition mostly above about 24%, no sharp cut-off; inactive = mostly below about 32%
MC4R barr agon: agonists of human melanocortin 4 receptor (MC4R) beta-arrestin | P32245 | U2OS MC4R beta-arrestin complementation, luminescence; percent of melanotan II response, DMSO zero | activation, % at 8.9 µM | actives 0.98% (n = 360,000) | AID 540308;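 active = activation above a per-plate cutoff, the mean activation of sample wells on that plate plus 3 SD, cut at about 8% in these data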
ALR H2O2 inh: human ALR oxidase inhibition via reduced H2O2 | inhibition, % (concentration not given with the values) | purified ALR, DTT oxidation, H2O2 HRP-luminol luminescence | hit rate 3.8% among 290,000;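 active = mean and each replicate at 75% or more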;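 also: stock transfer was 7.5 nL into about 7.5 µL; 0% = neutral wells and 100% = wells with inactivated enzyme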
MC4R antagonist: antagonists of human melanocortin 4 receptor (MC4R). P32245. MC4R-expressing cells, MTII-stimulated cAMP, LANCE TR-FRET. inhibition, % at 6.5 µM. actives 0.48% (n = 360,000). AID 540295;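 active = inhibition above its plate's cutoff, the mean of tested wells on that plate plus 3 SD, cut at about 29% in these data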;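 also: 0% = Melanotan II alone and 100% = Melanotan II plus saturating MCL0020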
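System: U2OS-MC4R stable cell line; Technique: Eu-cAMP/anti-cAMP TR-FRET, emission 671 nm; Repeats: single well per compound; Also added: Melanotan II; Dosing: one concentration, 6.5 µM nominal; Schedule: 30-min compound, 1-h challenge, 1-h detection, room temperature.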
HDAC3 inhib: blocks human histone deacetylase 3; inhibition, % at 8.3 µM; actives 0.15% (n = 320,000); recombinant HDAC3, fluorogenic peptide/trypsin coupled, fluorescence; O15379; in the data active = inhibition above about 26%, passing the limit was not always enough
UUG fidelity: modulators of start codon recognition fidelity in yeast; S. cerevisiae UUG-firefly luciferase reporter, luminescence/redox ratio; activity score, % at 18.7 µM; hit rate 0.13% among 350,000; AID 602363;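 active = replicate mean at a twofold rise or more, about +100% in these data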;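 note: firefly luciferase made from a UUG start codon reports start codon fidelity; reporter light over untreated wells divided by growth signal over untreated wells; some hits fall short of that in this replicate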
Starred values were filed as active, the others as inactive. Rows were chosen to be rich in hits. Some 4.2% of all compounds tested hit in one or more screens of this group.

How did O=[N+]([O-])c1ccc(-c2nc(Nc3ccc(O)cc3)c3ccccc3n2)cc1 do in these assays?
NALP1 yeast inh: 27; MC4R barr agon: 4; ALR H2O2 inh: -13; MC4R antagonist: 7; HDAC3 inhib: 5; UUG fidelity: -4

What do the screens show for `Cc1nc2ccccc2nc1N/N=C/c1ccc(O)cc1`?
NALP1 yeast inh: -2; MC4R barr agon: 0; ALR H2O2 inh: 85*; MC4R antagonist: -25; HDAC3 inhib: 5

What do the screens show for `Oc1ccc(Nc2nc(-c3ccccc3)nc3ccccc23)cc1`?
NALP1 yeast inh: 15; MC4R barr agon: -1; ALR H2O2 inh: 98*; MC4R antagonist: -8; HDAC3 inhib: 6; UUG fidelity: -16

Results for Oc1ccc(Nc2nc3ccccc3nc2Nc2ccc(O)cc2)cc1 ?
NALP1 yeast inh: -5; MC4R barr agon: 0; ALR H2O2 inh: 96*; MC4R antagonist: 6; HDAC3 inhib: 5; UUG fidelity: -32

What do the screens show for `OCCNc1nc2ccccc2nc1NCCO`?
NALP1 yeast inh: -18; MC4R barr agon: -1; ALR H2O2 inh: -3; MC4R antagonist: 13; HDAC3 inhib: -18; UUG fidelity: -6

What do the screens show for `CCCc1cn(CC[C@H]2CC[C@H](NC(=O)C3CCC3)[C@@H](CO)O2)nn1`?
UUG fidelity: 3

What do the screens show for `O=C(CCN1CCCCC1)N[C@@H]1CC[C@@H](CCNS(=O)(=O)c2ccc(Cl)cc2)O[C@@H]1CO`?
UUG fidelity: 7

What do the screens show for `CC(=O)Nc1ccc(Nc2nc(-c3ccccc3)nc3ccccc23)cc1`?
NALP1 yeast inh: 7; MC4R barr agon: 2; ALR H2O2 inh: 99*; MC4R antagonist: 15; HDAC3 inhib: 12

What do the screens show for `COc1ccc(Nc2nc(-c3ccccc3)nc3ccccc23)cc1`?
NALP1 yeast inh: 4; MC4R barr agon: 0; ALR H2O2 inh: 2; MC4R antagonist: 3; HDAC3 inhib: 7; UUG fidelity: 7

What do the screens show for `Cc1noc(C)c1NC(=O)NCC[C@@H]1CC[C@H](NC(=O)Nc2cccc(Cl)c2)[C@H](CO)O1`?
UUG fidelity: 0

How did COc1cc(/C=C(/NC(C)=O)C(=O)O)cc(Cl)c1OCc1ccc(Br)cc1 do in these assays?
MC4R barr agon: -1; ALR H2O2 inh: 95*; MC4R antagonist: 15; HDAC3 inhib: 5

How did CC(C)NC(=O)N[C@H]1CC[C@H](CC(=O)NC2Cc3ccccc3C2)O[C@@H]1CO do in these assays?
UUG fidelity: 7

What do the screens show for `Cc1cccc(Nc2nnc(SCC(=O)Nc3ccc(C(=O)O)cc3)s2)c1`?
NALP1 yeast inh: 4; MC4R barr agon: -1; ALR H2O2 inh: 94*; MC4R antagonist: 5; HDAC3 inhib: 1

What do the screens show for `Cc1cccc(C(=O)Nc2nnc(SCC(=O)Nc3ccc4c(c3)oc3ccccc34)s2)c1`?
NALP1 yeast inh: 21; MC4R barr agon: 9.4*; ALR H2O2 inh: -20; MC4R antagonist: 1; HDAC3 inhib: -3

How did Cc1cccc(Nc2nnc(SCC(=O)Nc3ccccc3[N+](=O)[O-])s2)c1 do in these assays?
NALP1 yeast inh: 44; MC4R barr agon: 1; ALR H2O2 inh: 3; MC4R antagonist: 1; HDAC3 inhib: -6

Results for Cc1ccccc1N=C(NOCc1ccc(Cl)cc1Cl)c1nonc1N ?
NALP1 yeast inh: 40*; MC4R barr agon: -3; ALR H2O2 inh: -4; MC4R antagonist: 12; HDAC3 inhib: 7

Results for Cc1ccc(N=C(NOCc2ccc(Cl)cc2Cl)c2nonc2N)c(C)c1 ?
NALP1 yeast inh: 2; MC4R barr agon: -3; ALR H2O2 inh: -1; MC4R antagonist: 11; HDAC3 inhib: 3

What do the screens show for `O=C(O)CCCCCNCc1ccncc1`?
NALP1 yeast inh: 16; MC4R barr agon: -3; MC4R antagonist: 5; HDAC3 inhib: -2; UUG fidelity: -17

Results for O=C(O)CCCCNCc1ccccc1 ?
NALP1 yeast inh: 40*; MC4R barr agon: 1; ALR H2O2 inh: -6; MC4R antagonist: 4; HDAC3 inhib: -5; UUG fidelity: 5

What do the screens show for `O=C1CS(=O)(=O)C(c2ccccc2)N1c1cccc(Cl)c1` (stereo not given)?
UUG fidelity: 33

Looked up by compound from above, 4 records:
What do the screens show for `Cc1noc(C)c1NC(=O)NCC[C@@H]1CC[C@H](NC(=O)Nc2cccc(Cl)c2)[C@H](CO)O1`?
UUG fidelity: 0

What do the screens show for `Cc1nc2ccccc2nc1N/N=C/c1ccc(O)cc1`?
NALP1 yeast inh: -2; MC4R barr agon: 0; ALR H2O2 inh: 85*; MC4R antagonist: -25; HDAC3 inhib: 5

What do the screens show for `COc1ccc(Nc2nc(-c3ccccc3)nc3ccccc23)cc1`?
NALP1 yeast inh: 4; MC4R barr agon: 0; ALR H2O2 inh: 2; MC4R antagonist: 3; HDAC3 inhib: 7; UUG fidelity: 7

What do the screens show for `CCCc1cn(CC[C@H]2CC[C@H](NC(=O)C3CCC3)[C@@H](CO)O2)nn1`?
UUG fidelity: 3

(cont.)
What do the screens show for `COC(=O)c1ccc(NC(=S)Nc2ccccn2)cc1`?
NALP1 yeast inh: 12; MC4R barr agon: 0; ALR H2O2 inh: 1; MC4R antagonist: -2; HDAC3 inhib: 5; UUG fidelity: -25

How did O=C(NC(=S)Nc1ccc(O)cc1)C1CCCC1 do in these assays?
MC4R barr agon: -2; MC4R antagonist: 8; HDAC3 inhib: 7; UUG fidelity: -17

How did Oc1ccc(NC(=S)Nc2ccc(O)cc2)cc1 do in these assays?
NALP1 yeast inh: 23; MC4R barr agon: -1; ALR H2O2 inh: 99*; MC4R antagonist: 8; HDAC3 inhib: -2

Results for COC(=O)c1ccc(NC(=S)Nc2ccc(O)cc2)cc1 ?
NALP1 yeast inh: 4; MC4R barr agon: -1; ALR H2O2 inh: 99*; MC4R antagonist: 5; HDAC3 inhib: -8

What do the screens show for `C[C@@H]1CN([C@@H](C)CO)C(=O)c2cc(NC(=O)Nc3ccc4c(c3)OCO4)ccc2O[C@H]1CN(C)C(=O)Nc1ccc(C(F)(F)F)cc1`?
UUG fidelity: -5

How did O=C(CCN1CCCCC1)NCC[C@@H]1CC[C@@H](NS(=O)(=O)c2cccc(F)c2)[C@@H](CO)O1 do in these assays?
UUG fidelity: -5

Results for C[C@H]1CN([C@@H](C)CO)C(=O)c2cc(C#CC3CC3)cnc2O[C@@H]1CN(C)C(=O)c1ccc(F)cc1 ?
UUG fidelity: -2

What do the screens show for `CCc1cc2c(NCC(=O)O)ncnc2s1`?
NALP1 yeast inh: 39*; MC4R barr agon: -1; ALR H2O2 inh: -39; MC4R antagonist: -2; HDAC3 inhib: 8; UUG fidelity: -26

What do the screens show for `Nc1nc2ccc(-c3nc4ccccc4o3)cc2s1`?
NALP1 yeast inh: 18; MC4R barr agon: 0; ALR H2O2 inh: 97*; MC4R antagonist: 13; HDAC3 inhib: -141; UUG fidelity: -25

Results for CCn1c(CNC(=O)c2ccco2)nnc1SCC(=O)c1ccc(F)cc1 ?
NALP1 yeast inh: -22; MC4R barr agon: -1; MC4R antagonist: 6; HDAC3 inhib: -4; UUG fidelity: -21

What do the screens show for `COc1ccc(C(=O)NCc2nnc(SCC(=O)c3ccc(F)cc3)n2C)cc1OC`?
MC4R barr agon: -2; ALR H2O2 inh: 94*; MC4R antagonist: -2; HDAC3 inhib: -1; UUG fidelity: -16

Results for Cn1c(CNC(=O)c2ccco2)nnc1SCC(=O)c1ccc(F)cc1 ?
NALP1 yeast inh: 7; MC4R barr agon: -3; ALR H2O2 inh: 86*; MC4R antagonist: 1; HDAC3 inhib: 4; UUG fidelity: 6

Results for COc1ccc(S(=O)(=O)N(C)C[C@@H]2Oc3c(NC(=O)C4CCCCC4)cccc3C(=O)N([C@@H](C)CO)C[C@@H]2C)cc1 ?
UUG fidelity: 8
